Values of other authors, collected in PMC11954708 (Clinical Pharmacokinetics, 2025).

Details: fed/fasted in vivo

AUC ratio Observed: 1.53
SMILES: CCOC(=O)C1=C(C)NC(C)=C(C(=O)OC)C1c1cccc(Cl)c1Cl (stereo not shown) [Felodipine]
